Columns and labels:
MBP-IKKβ (701–745) [1] = biological target: T1, MBP-IKKβ (701–745) (Homo sapiens, UniProt O14920); assay: SPR affinity assay on immobilized MBP-IKKβ; settings: read-out: KD of GST-NEMO (1–196) binding to immobilized MBP-IKKβ (701–745)
T1 construct: made in house; host or cells: E. coli BL21(DE3)
Method: MBP-IKKβ was immobilized on the surface of the CM5 chip using the amine-coupling approach at a flow rate of 10 μL/min in 10 mM sodium acetate buffer (pH 5.0). The sensor surface was activated with a 7 min injection of a mixture comprising 50 mM N-hydroxysuccinimide (NHS) and 200 mM 1-ethyl-3-(3- dimethylaminopropyl) carbodiimide (EDC). Then, 33 μg/mL of IKKβ was injected to reach the target level of 500 RU and the surface was blocked with 1 M ethanolamine, pH 8.5. A series of concentrations of NEMO or SHK were injected into the flow system and analyzed for 90 or 120 s, followed by dissociation for 90 or 600 s. All binding analyses was performed in phosphate-buffered saline (PBS, pH 7.4) with 0.05% (v/v) Tween-20 at 25 °C. Prior to analysis, double reference subtractions were made to eliminate bulk refractive index changes, injection noise, and data drift. The binding affinity was determined by fitting to a Langmuir 1:1 binding model in the Biacore Evaluation software (GE Healthcare).

Chains of the proteins cited; added tags and fusions are not shown. Residues count along the entry.
UniProt O14920, 701-745: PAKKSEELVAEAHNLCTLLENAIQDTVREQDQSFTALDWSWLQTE

MBP-IKKβ (701–745) [2] = biological target: T1, MBP-IKKβ (701–745); assay: MST binding assay to IKKβ; settings: NEMO to IKKβ, read-out: KD for GST-NEMO (1–196)

Kd (MBP-IKKβ (701–745) [1]): 261 ± 62 nM
Kd (MBP-IKKβ (701–745) [2]): 209 ± 32.5 nM
Substance: GST-NEMO (1–196): truncated GST-tagged NEMO residues 1–196 expressed in E. coli

Source: article PMC8904520, “Characterization of a small-molecule inhibitor targeting NEMO/IKKβ to suppress colorectal cancer growth” (Signal Transduction and Targeted Therapy, 2022)
